Measurements published in patent US8273794B2, “Compounds and compositions for delivering active agents” (Emisphere Technologies, Inc., priority 2004, dated 2012).

Assay: Human zinc insulin oral delivery in rats, serum insulin by ELISA
Conditions: oral dosing with human insulin alone, previous experiments
Procedure: Oral dosing (PO) compositions of delivery agent compound and human zinc insulin (minimum 26 IU/mg available from Calbiochem—Novabiochem Corp, La Jolla, Calif.) were prepared in deionized water. […] The solution was vortexed, then heated (about 37° C.) and sonicated. The pH was adjusted to about 7 to 8.5 with NaOH or HCl. […] About 1.25 mg insulin from an insulin stock solution (15 mg/ml made from 0.5409 g insulin and 18 ml deionized water, adjusting with HCl and NaOH to pH 8.15 and to obtain a clear solution using 40 ml concentrated HCl, 25 ml 10N NaOH and 50 ml 1N NaOH) was added to the solution and mixed by inverting.
A dosing group of five animals was administered one of the dosing solutions. […] The syringe was filled with dosing solution by drawing the solution through the catheter, which was then wiped dry. The catheter was placed down the esophagus leaving 1 cm of tubing past the incisors. The dosing solution was administered by pressing the syringe plunger.
Serum insulin levels were determined with an Insulin ELISA Test Kit (Kit # DSL-10-1600 from Diagnostic Systems Laboratories, Inc., Webster, Tex.), modifying the standard protocol in order to optimize the sensitivity and linear range of the standard curve for the volumes and concentrations of the samples used in the present protocol. […]

human insulin
levels of human insulin following oral dosing: no measurable levels
